# Test results reported in article PMC9357092 (Clinical Cancer Research, 2022).
# Experiment: Whole-body-4Brain PBPK model simulation of plasma and CNS pharmacokinetics
# Conditions: PBPK input
structure (smiles),measurement,setting,value
CS(=O)(=O)CCNCc1ccc(-c2ccc3ncnc(Nc4ccc(OCc5cccc(F)c5)c(Cl)c4)c3c2)o1 [lapatinib],fa,assigned based on observed data,0.5
same,Ka,"first-order absorption rate constant, observed",0.3
same,Lag time,observed,0.5 h
